Results taken from ChEMBL document CHEMBL1250451, “Mechanistic insights into a Ca2+-dependent family of alpha-mannosidases in a human gut symbiont” (Nat Chem Biol, 2010).

What was measured:
Assay type in all cases: protein assay
[1] = target: T1, Alpha-1,2-mannosidase, putative (BT_3130) (Bacteroides thetaiotaomicron) (UniProt Q8A325); assay: Activity of Bacteroides thetaiotaomicron GH92 alpha-mannosidase GH92 alpha-mannosidase 3130 assessed as mannose release at 1 mM after 16 hrs by HPLC relative to untreated control after 16 hrs by HPLC
T1 sequence (whole entry): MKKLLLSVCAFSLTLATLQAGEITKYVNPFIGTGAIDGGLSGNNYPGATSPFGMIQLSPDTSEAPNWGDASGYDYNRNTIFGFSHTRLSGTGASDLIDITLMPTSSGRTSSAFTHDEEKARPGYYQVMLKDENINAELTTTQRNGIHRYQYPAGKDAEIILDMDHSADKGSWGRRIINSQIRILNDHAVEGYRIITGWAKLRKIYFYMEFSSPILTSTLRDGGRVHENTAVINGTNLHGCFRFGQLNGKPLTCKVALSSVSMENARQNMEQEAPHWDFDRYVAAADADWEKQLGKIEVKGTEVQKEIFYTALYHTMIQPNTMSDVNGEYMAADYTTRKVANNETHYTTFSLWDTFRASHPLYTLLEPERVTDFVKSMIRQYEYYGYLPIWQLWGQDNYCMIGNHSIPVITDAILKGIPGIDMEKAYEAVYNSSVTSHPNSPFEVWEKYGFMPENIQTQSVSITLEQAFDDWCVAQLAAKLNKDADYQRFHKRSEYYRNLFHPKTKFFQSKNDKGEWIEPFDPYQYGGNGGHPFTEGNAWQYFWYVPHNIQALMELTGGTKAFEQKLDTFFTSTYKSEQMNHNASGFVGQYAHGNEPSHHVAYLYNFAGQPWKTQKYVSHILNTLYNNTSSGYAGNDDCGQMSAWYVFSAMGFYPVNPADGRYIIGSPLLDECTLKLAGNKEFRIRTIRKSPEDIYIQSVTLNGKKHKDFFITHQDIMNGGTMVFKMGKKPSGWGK

[2] = target: T2, Alpha-1,2-mannosidase (BT_1769) (Bacteroides thetaiotaomicron) (UniProt Q8A6V7); assay: Activity of Bacteroides thetaiotaomicron GH92 alpha-mannosidase GH92 alpha-mannosidase 1769 assessed as mannose release at 1 mM after 16 hrs by HPLC relative to untreated control after 16 hrs by HPLC
T2 sequence (whole entry): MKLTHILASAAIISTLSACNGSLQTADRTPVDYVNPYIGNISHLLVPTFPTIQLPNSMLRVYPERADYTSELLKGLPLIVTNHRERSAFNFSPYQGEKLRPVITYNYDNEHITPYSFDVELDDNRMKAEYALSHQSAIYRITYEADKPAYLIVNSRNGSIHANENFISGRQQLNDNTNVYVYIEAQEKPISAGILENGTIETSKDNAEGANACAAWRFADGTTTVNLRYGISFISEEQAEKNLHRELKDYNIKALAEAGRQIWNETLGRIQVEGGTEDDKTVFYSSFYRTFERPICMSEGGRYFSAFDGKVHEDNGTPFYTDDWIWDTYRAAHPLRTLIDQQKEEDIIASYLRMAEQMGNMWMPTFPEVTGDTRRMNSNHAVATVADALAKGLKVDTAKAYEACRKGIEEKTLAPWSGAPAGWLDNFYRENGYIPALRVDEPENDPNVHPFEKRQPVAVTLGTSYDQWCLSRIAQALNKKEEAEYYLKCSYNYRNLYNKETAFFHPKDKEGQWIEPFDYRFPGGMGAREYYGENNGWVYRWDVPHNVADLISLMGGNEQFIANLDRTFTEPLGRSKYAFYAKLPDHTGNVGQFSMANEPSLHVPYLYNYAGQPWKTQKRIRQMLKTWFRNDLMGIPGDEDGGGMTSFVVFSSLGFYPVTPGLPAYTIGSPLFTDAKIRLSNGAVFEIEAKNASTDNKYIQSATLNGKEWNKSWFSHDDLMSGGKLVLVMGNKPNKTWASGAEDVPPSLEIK

[3] = target: T3, Alpha-1,2-mannosidase (BT_1878) (Bacteroides thetaiotaomicron) (UniProt Q8A6K3); assay: Activity of Bacteroides thetaiotaomicron GH92 alpha-mannosidase GH92 alpha-mannosidase 1878 assessed as mannose release at 1 mM after 16 hrs by HPLC relative to untreated control after 16 hrs by HPLC
T3 sequence (whole entry): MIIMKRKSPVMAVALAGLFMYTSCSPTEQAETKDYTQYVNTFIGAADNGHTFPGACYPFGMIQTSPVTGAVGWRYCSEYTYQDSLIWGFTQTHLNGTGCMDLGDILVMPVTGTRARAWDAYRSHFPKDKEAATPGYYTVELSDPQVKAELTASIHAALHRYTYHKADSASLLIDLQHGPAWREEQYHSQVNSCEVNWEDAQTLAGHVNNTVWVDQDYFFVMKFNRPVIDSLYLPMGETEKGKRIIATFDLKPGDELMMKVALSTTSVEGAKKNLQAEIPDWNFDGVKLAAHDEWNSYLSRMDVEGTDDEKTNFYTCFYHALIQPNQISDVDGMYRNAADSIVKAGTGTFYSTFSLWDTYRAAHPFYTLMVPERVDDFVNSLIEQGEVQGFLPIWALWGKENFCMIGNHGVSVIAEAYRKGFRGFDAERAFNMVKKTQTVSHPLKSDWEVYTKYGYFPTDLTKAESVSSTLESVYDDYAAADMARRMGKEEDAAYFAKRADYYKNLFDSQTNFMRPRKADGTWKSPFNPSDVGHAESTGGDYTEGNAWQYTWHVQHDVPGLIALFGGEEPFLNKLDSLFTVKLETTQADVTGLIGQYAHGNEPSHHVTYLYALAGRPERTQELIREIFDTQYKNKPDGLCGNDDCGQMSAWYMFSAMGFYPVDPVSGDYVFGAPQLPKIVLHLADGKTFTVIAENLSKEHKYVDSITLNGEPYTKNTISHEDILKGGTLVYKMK

Measured: Activity

OC[C@H]1O[C@H](O[C@@H]2[C@H](O)[C@@H](O)O[C@H](CO)[C@H]2O)[C@@H](O)[C@@H](O)[C@@H]1O
100%: all assays above
